# Results: US20240279332A1 (Amgen, published 2024)
# T1: cyno TREM-1 on cells (cynomolgus monkey, UniProt A0A2K5VHG8 21-233)
# T1 construct: whole, on cells; On HEK293 cells co-transfected with DAP12, or native on cynomolgus PBMCs; also called cynomolgus TREM-1; TREM-1 receptor in cynomolgus monkey PBMCs
# T1 sequence: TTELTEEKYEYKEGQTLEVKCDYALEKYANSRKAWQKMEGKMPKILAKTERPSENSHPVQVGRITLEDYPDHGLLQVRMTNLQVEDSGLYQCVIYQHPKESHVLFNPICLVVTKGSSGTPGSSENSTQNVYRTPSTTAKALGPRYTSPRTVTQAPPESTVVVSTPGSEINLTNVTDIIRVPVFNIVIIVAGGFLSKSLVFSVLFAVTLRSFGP
# Tests used:
# [1] = biological target: T2, biotinylated human TREM-1-His antigen (human, UniProt Q9NP99 21-205, biotinylated in-house, site not stated); assay: limiting antigen assay, FACS on LumAvidin beads coated with 7.5 ng/mL biotinylated human TREM-1-His; antibody 5 ug/mL
# T2 construct: Soluble TREM-1; also called b-huTREM-1-His; Soluble TREM1
# From the text: TREM-1 Antibody Relative Affinity Ranking by Limiting Antigen Assay: TREM1 hybridoma supernatants were affinity-ranked within the panel by their binding kinetics to soluble TREM-1 in a limiting antigen assay using LUMAVIDIN® beads (Luminex) on FACS. Briefly, in-house biotinylated human TREM-1-His antigen (b-huTREM-1-His) was serially diluted in FACS buffer and combined with an equal volume of LUMAVIDIN® beads (different uniquely-barcoded bead for each antigen concentration), resulting in a 5-point 2-fold serial dilution series starting from a final b-huTREM-1-His antigen concentration of 30 ng/mL. The antigen-bead mixtures were plated across 3 wells in a 96-well FACS plate, then incubated for 30 minutes at room temperature protected from light. Beads were then pelleted by centrifugation, supernatant was removed by flicking, and wells were washed twice with 200 μL/well of FACS buffer. The different beads were then resuspended, pooled, and diluted in STABILGUARD® Immunoassay Stabilizer (SurModics) to block non-specific binding. Normalized TREM-1 hybridoma supernatants were combined with an equal volume of bead mixture in a FACS plate at a final concentration of 5 μg/mL test antibody to 0.5 μL beads/well. The plates were then shaken and incubated overnight for ˜18 hours at room temperature. Beads were then pelleted by centrifugation, supernatant was removed by flicking, and wells were washed twice with 200 μL/well of FACS buffer. ALEXA FLUOR® 488 Goat anti-Human IgG Fc secondary detection antibody (Jackson ImmunoResearch) was added at 5 μg/mL to the plates, shaken, and incubated for 15 minutes at room temperature protected from light. Beads were washed with FACS buffer, pelleted by centrifugation, supernatant was removed by flicking, and washed once more with FACS buffer. The beads were then resuspended and run on the BD ACCURI™ C6 Flow Cytometer with Intellicyt […]® autosampler.
# The antibody binding signal correlates with antibody affinity; the degree of antibody binding to the target antigen TREM-1 correlates with the measured fluorescent intensity and thus allows a relative comparison of affinities across the panel.
# [2] = biological target: T3, human TREM-1 (TrigGering Receptor Expressed on Myeloid cells 1) on cells (human, UniProt Q9NP99 21-234); assay: FACS on HEK293 co-transfected with human TREM-1 and DAP12; hybridoma supernatant 2.5 ug/mL; geomean fold over irrelevant control antibody
# T3 construct: also called human TREM1/DAP12; TREM-1/DAP12
# Protocol: (§1) The TREM-1-specific antibodies identified in primary screening were evaluated for cross-reactivity to cynomolgus TREM-1, as well as specificity to TREM-1 and not DAP12. TREM-1 hybridoma supernatants were tested for binding to human or cyno TREM-1 transiently expressed on HEK293 cells by FACS (harvests 1-6) or by […]™ (harvests 8-9). […] The following day, transfected HEK293 cells were transferred into 96-well FACS plates at 50,000 cells/well and incubated with normalized hybridoma supernatants at a final concentration of 2.5 μg/mL for 1 hour at 4° C. Cells were then pelleted by centrifugation, supernatant was removed by flicking, and wells were washed twice with 200 μL/well of FACS buffer. 5 μg/mL ALEXA FLUOR® 647 Goat anti-Human IgG Fc (Jackson ImmunoResearch) secondary detection antibody and 2.5 μg/mL 7-aminoactinomycin-D (Sigma) viability stain were incubated with the cells for 15 minutes at 4° C. Cells were pelleted by centrifugation, supernatant was removed by flicking, and wells were washed once more with 200 μL/well of FACS buffer. TREM-1 hybridoma supernatants showing human TREM-1- or cyno TREM-1-specific binding was detected by FACS on the BD ACCURI™ 06 flow cytometer with Intellicyt autosampler. The data was reported as geomean (GM) fold over irrelevant control antibody binding.
# [3] = biological target: T1, cyno TREM-1 on cells; assay: FACS on HEK293 co-transfected with cyno TREM-1 and DAP12; hybridoma supernatant 2.5 ug/mL; geomean fold over irrelevant control antibody
# Protocol: as §1
# [4] = biological target: T3, human TREM-1 (TrigGering Receptor …); assay: cell-based or functional assay
Binder,Soluble TREM1 7.5 ng/mL (FACS Geomean) [1],Human TREM1 GM Fold [2],Cyno TREM1 GM Fold [3],"Ab IC50-Human PBMC (Trial 1), TNFα release after PGLYRP1/PGN [4]","Ab IC50-Human PBMC (Trial 2), TNFα release after PGLYRP1/PGN [4]"
"46H7 (antibody, V domains shown, also called 46H7 (19332)) VH: EVQLLESGGGMVQPGGSLRLSCAVSGFTFSRYAMSWVRQAPGKGLEWVSEMRGSSGSTYYADSVKGRFTISRDNSKNTLYLQMNSLRVEDTAIYYCAKEFSSNSLFDYWGQGTLVTVSS VL: EIVMTQSPATLSVSPGERATLSCRASQSVNSNLAWYQQKPGRAPRLLIYGASTRATGIPARFSGSGSGTEFTLTISSLQSEDFAVYYCQQFYNWPPWTFGQGTKVEIKR",38000,1910 fold,2690 fold,6.3 pM,4.4 pM
"30H2 (antibody, V domains shown, also called 30H2 (19330)) VH: EVQVLESGGGLVQPGESLRLSCTASGFTFNAYAMSWVRQAPGKGLEWVSTISGSGSTTYYADSVKGRFTISRDNSKNTLDLQMNSLRAADTAVYYCAKVAGSNFFFDHWGQGTLVTVSS VL: EIVMTQSPATLSVSPGERATLSCRASQSINSNLAWYQQKPGQAPRLLIYGAYTRATGIPDRFSGSGSGTEFTLTISSLQSEDFAVYYCQEFIMWPPWTFGLGTQVEIKR",91700,108 fold,76.9 fold,6.9 pM,
"44A5 (antibody, V domains shown, also called TREM1 antibody 44A5) VH: EVQLLESGGGLVQPGGSLRLSCAASGFTFSTYAMNWVRQAPGKGLEWVSTVSGSGRPTYYADSVKGRFTISRDNSKNTLYLQMNSLRAEDTAVYYCAKAYYSNYLFDYWGQGTLVTVSS VL: EIVMTQSPAILSVSPGERATLSCRASQSVSSNLAWYQQKPGQAPRLLIYGASTRATGVPARFSGGGSGTDFTLTISSLQSEDFAVYYCQHCKTWPPLTFGGGTKVDLKR",36800,1630 fold,2240 fold,3.5 pM,6.1 pM
"50A12 (antibody, V domains shown, also called TREM1 antibody 50A12) VH: EVQLVESGGGLVQPGGSLRLSCAASGFTFSSYWMSWVRQAPGKGLEWVANIKQDGSEEYYVDSVKGRFTISRDNAKNSLFLQMNSLRAEDTAVYYCARDYGDSFDYWGQGTLVTVSS VL: DIQMTQSPSSVSASVGDRVTITCRASQGIRKWLAWYQQKPGRAPKLLIYAASRLQSGVPSRFSGSGSGTDFTLTISSLRPEDFATYYCLQAHGFPWTFGQGTKVEIKR",14600,2420 fold,2780 fold,3.3 pM,3.6 pM
"49A2 (antibody, V domains shown, also called 49A2 (19333)) VH: EVQLVESGGGLVQPGGSLRLSCAASGFTFSSNWMSWVRQAPGKGLDWMASMKQDGSEIYYVDSVKGRFTISRDNAKNSLHLQMNSLRAEDTAVYYCVRGGWRFESWGQGALVTVSS VL: EIVMTQSPATLSVSPGERATLSCRASQSVSSNLAWYQQKSGQAPRLLIYGASIRATGIPARVSGSGSGTEFTFTISSLQSEDFAVYYCQQYKNWPLTLGGGTKVEIKR",28300,2220 fold,2980 fold,3.1 pM,3.3 pM
"61B12 (antibody, V domains shown, also called TREM1 antibody 61B12) VH: QVQLVQSGAEVTKPGASVKVSCKASGYTFTRYDINWVRQATGQGLEWMGWMNPNSGNSGSVQKFRGRVTMTRNTSITTVYMELSSLRSDDTAVYYCARGGISSSWHWAFDIWGQGTMVTVSS VL: DIQMTQSPSSLSASVGDRVTITCQASQDINNHLNWYQQKPGKAPKLLIYGAYTLETGVPSRFSGSGSGTDFTFTISSLQPEDIATYYCQQYDKLPLTFGGGTKVEIKR",26900,1850 fold,2090 fold,8 pM,
"57C10 (antibody, V domains shown, also called TREM1 antibody 57C10) VH: QVQLVQSGAEVKKPGASVKVSCKASGYTFTRYDINWVRQATGQGLEWMGWLNPNSGNTGQTQKFRGRVTMTRNTSINTAYMELSSLRSEDTAVYYCARGGYTSAWRWYFDLWGRGTLVTVSS VL: DIQMTQSPSSLSASVGDRVTITCQASQDINNHLNWYQQKPGKAPKLLIYDVSNLETGVPSSFSGSGCGTDFTFTISSLQPEDIATYFCQQYDKLPLTFGGGTKVEIEG",28500,1670 fold,2430 fold,8.8 pM,7.2 pM

# The remaining lines, values ahead:
Soluble TREM1 7.5 ng/mL (FACS Geomean) [1],Human TREM1 GM Fold [2],Cyno TREM1 GM Fold [3],"Ab IC50-Human PBMC (Trial 1), TNFα release after PGLYRP1/PGN [4]","Ab IC50-Human PBMC (Trial 2), TNFα release after PGLYRP1/PGN [4]",Binder
24500,1480 fold,2150 fold,4.3 pM,2.4 pM,"64D7 (antibody, V domains shown, also called TREM1 antibody 64D7) VH: QVQLVQSGAEVKKPGASVKVSCKASGYTFTSYDINWVRQATGQGLEWMGWMNPNRGNTGYVKKFQGRVTMTRNTSISTAYMELSSLRSEDTAVYYCARRRAVYRSSWEWYFDLWGRGTLVTVSS VL: DTQMTQSPSSLSASEGDRVTITCQASQDIFNDLNWYQEKPGKAPKLLIYHASNLETGVPSRFSGSGSGTDYTFTISSLQPEDIATYYCQQYGNLPLTFGGGTKVEIKR"
23800,1630 fold,1520 fold,31.6 pM,,"66B8 (antibody, V domains shown, also called TREM1 antibody 66B8) VH: QVQLVQSGAEVKKPGASVKVSCKASGYTFTGYYMHWVRQAPGQGLEWMGWFKPNSGVTNYAQKFQGRVTMSRDTSISTAYMELSSLRSDDTAVYYCARAGYSTSWKDWFDPWGQGTLVTVSS VL: DIQMTQFPSSVSASVGDRVTITCRASQGISRWLAWYQQKQGKAPKLLIYMVSSLQSGVPSRFSGSGSGTDFTLTISSLQPEDFATYYCQQSHNFPITFGQGTRLDIKR"
25800,1380 fold,2370 fold,3.8 pM,3.1 pM,"63F8 (antibody, V domains shown, also called TREM1 antibody 63F8) VH: QVQLVQSGAEVKKPGASVKVSCKASGYTFTSYDINWVRQATGQGLEWMGRMNPKSGNAGYVQNFRGRVTMTRNTSISTAYMELSSLRSEDTAVYYCARGGRTSIWSFVFDYWGQGTLVTVSS VL: DIQMTQSPSSLSASVGDRVTITCQASQDISKHLNWYQQKPGKAPKLLIYDTSNLETGVPSRFSGSGSGTDFTFTISSLQPEDIATYNCQQYDKLPLTFGGGTKVEIKR"
24800,2070 fold,2160 fold,10.2 pM,2.7 pM,"61G5 (antibody, V domains shown, also called TREM1 antibody 61G5) VH: QVQLVQSGAEVKKPGASVKVSCKASGYTFTSYDINWVRQATGQGLEWMGWMNPNSGNSGSVKKFRDRVTMTRNTSISTAYMELSSLRSEDTAVYYCVRLIGYSSAWKWSFQHWGQGTLVTVSS VL: DIQMTQSPSSLSASVGDRVTITCQASRDISKYLNWYQQKPGKAPKLQIYDASNLETGVPSRFSGSGSGTDFTFTISSLQPEDIATYYCQHYDNIPITFGQGTRLEIKR"
